Literature values, collected in patent publication US20170354592A1 (ASCENDIA PHARMACEUTICALS, LLC, priority 2016, published 2017).

Conditions: cited from earlier work

Question: For “(±)-[3-(9H-carbazol-4-yloxy)-2-hydroxypropyl][2-(2-ethoxyphenoxy)ethyl] amine [Carvedilol]”, which aqueous solubility is on record?
Answer: poor
